In PMC7350276 (Journal of pharmaceutical and biomedical analysis, 2019):

Legend:
[1] = Preclinical pharmacokinetic studies; type: in vivo, male Sprague Dawley rats
[2] = Imaging mass spectrometry of brain tissue; type: in vivo, rat; conditions: 10 mg/kg I.V., 30 min post dose
[3] = Analyte stability in rat plasma; type: in vitro ADME; conditions: mean ± S.D.; for Freeze-thaw stability in plasma: −20 °C
Stock solution stability = type: physicochemical; conditions: fridge at 4°C, up to 7 days, mean ± S.D.
[4] = rabbit liver microsomes; cited from earlier work
κ-opioid receptors = conditions: read-out: Ki ± SEM; cited from earlier work
μ-opioid receptors = conditions: read-out: Ki ± SEM; cited from earlier work
α−1D = conditions: cited from earlier work
[5] = I.V. 2.5 mg/kg, male Sprague Dawley rats, mean ± S.E.M., N=4
[6] = P.O. 20 mg/kg, male Sprague Dawley rats, mean ± S.E.M., N=4

corynantheidine
Plasma concentration-time profile, shape ([1]; I.V. 2.5 mg/kg): bi-exponential decay
AUCinf, total exposure extrapolated [1, 5]: 652.9 ± 23.3 ng·h/mL
AUClast, total exposure up to the last measured time point [1, 5]: 640.3 ± 24.0 ng·h/mL
CL, clearance [1, 5]: 884.1 ± 32.3 mL/h
K, elimination rate constant [1, 5]: 0.1 ± 0.0 h⁻¹
MRT, mean residence time [1, 5]: 3.0 ± 0.2 h
T1/2, half-life [1, 5]: 6.9 ± 0.0 h
Vd, apparent volume of distribution [1, 5]: 8.0 ± 1.2 L
Foral, absolute oral bioavailability ([1]; P.O. 20 mg/kg vs I.V. 2.5 mg/kg, from AUClast, mean ± S.E.M., N=4): 49.9 ± 16.4%
CL, clearance [1, 6]: 1105.7 ± 613.3 mL/h
Cmax, maximum observed plasma concentration [1, 6]: 213.4 ± 40.4 ng/mL
MRT, mean residence time [1, 6]: 8.8 ± 1.8 h
Tmax [1, 6]: 4.1 ± 1.3 h
Vd, apparent volume of distribution [1, 6]: 9.2 ± 5.1 L
Plasma concentration-time profile, shape ([1]; P.O. 20 mg/kg, suspension, 20 mg/kg): flip-flop kinetics with absorption rate slower than the elimination rate
Time up to which corynantheidine was quantifiable in plasma ([1]; both I.V. and P.O. routes): up to 24 h
Blood-brain barrier crossing [2]: readily crosses the blood-brain barrier
Distribution in the brain (regions where detected) ([2]; MALDI FT-ICR imaging): the corpus callosum and parts of the hippocampus, such as the hippocampal commissure and the fimbria; also recorded: enters the corpus callosum and parts of hippocampal regions in the rat brain
Freeze-thaw stability in plasma ([3]; 3 freeze-thaw cycles): 98 % ± 25 % of nominal value
Autosampler stability of extracted plasma samples ([3]; 10 °C, up to 48 h): 96% ± 9 % of nominal value
Benchtop stability in plasma ([3]; room temperature, up to 9 h): 88% ± 6 % of nominal value
Freeze-thaw stability in plasma ([3]; two freeze-thaw cycles): 96% ± 5 % of nominal value
Working stock stability (Stock solution stability): 93% ± 9 % of nominal value
Major metabolite pathway [4]: O-demethylation
Ki (κ-opioid receptors): 1910 ± 45 nM
Ki (μ-opioid receptors): 118 ± 11.8 nM
Ki (α−1D): 41.7 ± 4.7 nM

Entries after “also recorded” stand apart in the source; their conditions may differ.
